Common to all, as to type: cell-based
The target in one experiment is T1, human Nav1.6 (Homo sapiens, UniProt Q9UQD0).
T1 construct: expressed in transfected cells

Protein sequences, listed by entry. Tags and fused reporters are not part of them. Residues count along the entry.
UniProt Q9UQD0, whole entry: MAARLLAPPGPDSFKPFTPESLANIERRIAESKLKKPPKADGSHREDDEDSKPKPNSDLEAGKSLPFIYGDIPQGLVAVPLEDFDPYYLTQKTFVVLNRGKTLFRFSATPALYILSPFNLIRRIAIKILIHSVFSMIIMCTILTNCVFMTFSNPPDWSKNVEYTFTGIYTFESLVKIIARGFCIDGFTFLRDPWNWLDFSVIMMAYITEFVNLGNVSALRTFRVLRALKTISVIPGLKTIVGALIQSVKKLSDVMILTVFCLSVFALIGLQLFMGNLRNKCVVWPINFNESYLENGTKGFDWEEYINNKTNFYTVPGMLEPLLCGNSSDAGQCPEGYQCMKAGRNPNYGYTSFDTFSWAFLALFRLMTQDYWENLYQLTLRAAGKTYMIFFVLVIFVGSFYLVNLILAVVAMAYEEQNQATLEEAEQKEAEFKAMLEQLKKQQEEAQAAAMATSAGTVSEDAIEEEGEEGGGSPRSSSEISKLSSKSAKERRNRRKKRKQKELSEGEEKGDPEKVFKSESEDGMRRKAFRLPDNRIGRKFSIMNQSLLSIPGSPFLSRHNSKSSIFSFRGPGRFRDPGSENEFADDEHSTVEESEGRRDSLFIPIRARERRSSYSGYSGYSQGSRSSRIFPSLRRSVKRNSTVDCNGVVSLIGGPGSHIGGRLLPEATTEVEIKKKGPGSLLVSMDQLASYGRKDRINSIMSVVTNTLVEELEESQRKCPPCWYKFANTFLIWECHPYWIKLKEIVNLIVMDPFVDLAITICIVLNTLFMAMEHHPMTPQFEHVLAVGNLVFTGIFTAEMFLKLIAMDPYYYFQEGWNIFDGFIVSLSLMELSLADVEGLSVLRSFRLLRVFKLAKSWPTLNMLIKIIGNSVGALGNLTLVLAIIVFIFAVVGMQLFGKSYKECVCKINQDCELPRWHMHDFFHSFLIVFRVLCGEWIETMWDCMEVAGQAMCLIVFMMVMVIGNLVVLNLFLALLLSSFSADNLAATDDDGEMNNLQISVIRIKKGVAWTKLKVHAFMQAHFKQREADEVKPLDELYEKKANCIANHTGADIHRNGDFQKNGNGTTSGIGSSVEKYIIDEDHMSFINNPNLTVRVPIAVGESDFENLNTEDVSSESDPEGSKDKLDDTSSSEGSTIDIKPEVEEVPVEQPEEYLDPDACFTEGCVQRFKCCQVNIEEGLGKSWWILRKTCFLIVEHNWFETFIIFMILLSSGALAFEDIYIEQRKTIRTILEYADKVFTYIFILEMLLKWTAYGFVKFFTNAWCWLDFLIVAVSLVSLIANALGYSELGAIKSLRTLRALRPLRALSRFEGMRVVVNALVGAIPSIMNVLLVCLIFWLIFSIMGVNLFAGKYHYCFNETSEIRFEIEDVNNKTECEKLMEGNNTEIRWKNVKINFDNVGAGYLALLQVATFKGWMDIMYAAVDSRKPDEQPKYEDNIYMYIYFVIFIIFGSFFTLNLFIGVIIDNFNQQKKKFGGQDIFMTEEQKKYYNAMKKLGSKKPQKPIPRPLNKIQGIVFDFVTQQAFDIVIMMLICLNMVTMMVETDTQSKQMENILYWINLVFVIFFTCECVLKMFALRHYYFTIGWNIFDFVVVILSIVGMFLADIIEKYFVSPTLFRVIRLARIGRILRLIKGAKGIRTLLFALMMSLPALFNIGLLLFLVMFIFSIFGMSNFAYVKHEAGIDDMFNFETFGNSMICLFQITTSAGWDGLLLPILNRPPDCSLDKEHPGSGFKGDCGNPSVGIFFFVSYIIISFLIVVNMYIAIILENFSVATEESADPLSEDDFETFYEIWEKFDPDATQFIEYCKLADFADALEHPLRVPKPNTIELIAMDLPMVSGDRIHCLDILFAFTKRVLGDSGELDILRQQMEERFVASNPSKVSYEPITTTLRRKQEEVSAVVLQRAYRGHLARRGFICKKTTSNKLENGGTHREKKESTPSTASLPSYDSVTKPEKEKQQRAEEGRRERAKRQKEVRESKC
UniProt Q15858, 1-1977 isoform Q15858-3 W1150R: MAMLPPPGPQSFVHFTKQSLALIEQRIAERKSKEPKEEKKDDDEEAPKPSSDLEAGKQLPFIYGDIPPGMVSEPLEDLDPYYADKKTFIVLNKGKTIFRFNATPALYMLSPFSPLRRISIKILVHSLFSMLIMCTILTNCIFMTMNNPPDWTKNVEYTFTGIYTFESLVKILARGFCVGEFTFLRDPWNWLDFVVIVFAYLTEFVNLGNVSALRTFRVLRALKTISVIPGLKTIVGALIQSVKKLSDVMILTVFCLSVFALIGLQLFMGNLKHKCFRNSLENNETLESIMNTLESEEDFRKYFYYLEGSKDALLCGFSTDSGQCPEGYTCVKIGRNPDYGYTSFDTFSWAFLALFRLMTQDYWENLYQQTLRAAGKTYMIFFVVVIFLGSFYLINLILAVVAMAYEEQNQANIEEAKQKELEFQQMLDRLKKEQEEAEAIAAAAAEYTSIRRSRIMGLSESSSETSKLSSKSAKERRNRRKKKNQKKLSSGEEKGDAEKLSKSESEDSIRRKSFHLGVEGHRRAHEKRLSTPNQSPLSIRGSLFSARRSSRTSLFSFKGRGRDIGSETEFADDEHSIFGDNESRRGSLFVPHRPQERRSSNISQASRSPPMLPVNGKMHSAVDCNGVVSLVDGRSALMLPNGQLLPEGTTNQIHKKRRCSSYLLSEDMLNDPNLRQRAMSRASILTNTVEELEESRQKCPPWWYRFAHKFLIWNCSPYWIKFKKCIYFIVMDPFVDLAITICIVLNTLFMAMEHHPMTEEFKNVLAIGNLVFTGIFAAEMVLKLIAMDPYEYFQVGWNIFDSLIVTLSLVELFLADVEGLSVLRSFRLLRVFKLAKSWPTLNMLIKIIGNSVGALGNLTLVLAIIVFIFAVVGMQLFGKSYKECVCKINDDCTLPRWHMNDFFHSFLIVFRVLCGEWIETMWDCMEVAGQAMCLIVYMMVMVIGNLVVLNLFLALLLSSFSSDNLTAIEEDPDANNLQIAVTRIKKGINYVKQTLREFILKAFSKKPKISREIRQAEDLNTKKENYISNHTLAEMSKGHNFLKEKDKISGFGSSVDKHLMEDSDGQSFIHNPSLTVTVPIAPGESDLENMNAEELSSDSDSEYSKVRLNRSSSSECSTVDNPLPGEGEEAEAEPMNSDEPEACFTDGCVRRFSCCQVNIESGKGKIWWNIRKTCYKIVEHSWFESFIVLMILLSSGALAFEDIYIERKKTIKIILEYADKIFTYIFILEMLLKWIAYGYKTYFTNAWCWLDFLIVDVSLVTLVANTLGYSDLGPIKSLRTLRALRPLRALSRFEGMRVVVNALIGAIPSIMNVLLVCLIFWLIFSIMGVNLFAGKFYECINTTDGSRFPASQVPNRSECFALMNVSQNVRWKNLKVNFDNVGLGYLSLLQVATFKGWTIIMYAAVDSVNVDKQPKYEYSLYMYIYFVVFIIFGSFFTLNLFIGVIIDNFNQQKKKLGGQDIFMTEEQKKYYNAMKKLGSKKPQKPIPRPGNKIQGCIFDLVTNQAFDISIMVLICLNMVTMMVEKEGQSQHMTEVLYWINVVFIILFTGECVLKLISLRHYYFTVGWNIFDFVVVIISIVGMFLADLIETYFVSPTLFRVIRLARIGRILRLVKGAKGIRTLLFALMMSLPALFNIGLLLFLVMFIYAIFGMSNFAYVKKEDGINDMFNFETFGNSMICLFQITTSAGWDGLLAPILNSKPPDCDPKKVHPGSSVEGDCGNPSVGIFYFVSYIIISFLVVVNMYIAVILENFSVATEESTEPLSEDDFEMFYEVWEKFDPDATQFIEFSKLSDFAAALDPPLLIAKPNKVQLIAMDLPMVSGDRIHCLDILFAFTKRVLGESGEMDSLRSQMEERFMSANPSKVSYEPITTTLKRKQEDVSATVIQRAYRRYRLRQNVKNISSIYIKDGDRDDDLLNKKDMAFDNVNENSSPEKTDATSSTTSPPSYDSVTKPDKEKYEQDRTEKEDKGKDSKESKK

Experiment [1] concerns the target T2, human Nav1.7 (Homo sapiens, UniProt Q15858, W1161R).
T2 construct: expressed in transfected cells
To be noted: read-out: IC50 for Nav1.7, QPatch electrophysiology assay.

Experiment [2] addresses T2, human Nav1.7. To be noted: read-out: IC50 value for human Nav1.7, FLIPR Tetra veratridine-induced depolarization inhibition assay.

Read-outs that look alike come from different tables or passages of the source. No end group written: not given here.

With “GPQCQKWMQTCDRERKCCEGFVCTLWCRKKLW-COOH [NV1D3034]”, the “selectivity for Nav1.7 compared to recombinant Protoxin-II” value on human Nav1.6 is listed as “improved selectivity”.

Consider “GPYCQKWMWTCDSERKCCEGMVCRLWCKKKLW-OH (cysteine pairing not given here) [NV1D12, reference compound]”, for which the figures for the IC50 on human Nav1.7 [1] and on human Nav1.7 [2] were ~2.2 nM and ~4 nM, respectively.

Source of the values: patent US9624280B2 (JANSSEN BIOTECH, INC., priority 2013, dated 2017).
